Measurements published in publication PMC4166032 (Bioconjugate Chemistry, 2014).
pIC50: −log10 of the molar value. Like-named read-outs stand apart in the source and are kept apart here.

Molecular target: T1, GST-hPXR-LBD (Homo sapiens, UniProt O75469)
T1 sequence (O75469 146-433 limits assumed): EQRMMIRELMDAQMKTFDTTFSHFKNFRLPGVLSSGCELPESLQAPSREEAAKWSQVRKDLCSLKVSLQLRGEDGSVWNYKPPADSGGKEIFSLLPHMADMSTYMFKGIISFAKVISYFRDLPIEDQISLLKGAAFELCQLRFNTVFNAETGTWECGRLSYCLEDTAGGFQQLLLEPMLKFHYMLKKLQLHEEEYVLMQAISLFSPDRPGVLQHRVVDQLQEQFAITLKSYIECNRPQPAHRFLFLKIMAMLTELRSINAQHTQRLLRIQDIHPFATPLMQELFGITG
Conditions: 30 min

## ginkgolide B [ginkgolide B (9)]
read-out: IC50 with 50 nM 20, 50 nM BODIPY FL vindoline (20) probe
  pIC50: 4.98
read-out: IC50 with 100 nM 20, 100 nM BODIPY FL vindoline (20) probe, laboratory assay buffer, 1.1% DMSO
  pIC50: 4.89
